Laboratory results from patent publication US8394809B2, “Phenoxy-substituted pyrimidines as opioid receptor modulators” (priority 2009, dated 2013).

The chains behind the UniProt entries cited, without tags or fusion partners.
UniProt P33535, whole entry: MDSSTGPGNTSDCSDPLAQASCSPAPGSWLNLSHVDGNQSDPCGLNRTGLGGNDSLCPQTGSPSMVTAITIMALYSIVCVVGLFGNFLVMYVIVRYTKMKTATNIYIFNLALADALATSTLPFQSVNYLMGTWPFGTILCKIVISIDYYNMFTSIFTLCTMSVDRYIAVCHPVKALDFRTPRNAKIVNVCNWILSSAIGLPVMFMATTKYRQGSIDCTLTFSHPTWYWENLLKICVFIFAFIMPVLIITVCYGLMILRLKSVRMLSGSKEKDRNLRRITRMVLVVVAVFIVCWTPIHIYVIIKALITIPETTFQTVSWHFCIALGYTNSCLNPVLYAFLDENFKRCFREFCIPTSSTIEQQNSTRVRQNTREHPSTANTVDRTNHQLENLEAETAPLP
UniProt P33533, whole entry: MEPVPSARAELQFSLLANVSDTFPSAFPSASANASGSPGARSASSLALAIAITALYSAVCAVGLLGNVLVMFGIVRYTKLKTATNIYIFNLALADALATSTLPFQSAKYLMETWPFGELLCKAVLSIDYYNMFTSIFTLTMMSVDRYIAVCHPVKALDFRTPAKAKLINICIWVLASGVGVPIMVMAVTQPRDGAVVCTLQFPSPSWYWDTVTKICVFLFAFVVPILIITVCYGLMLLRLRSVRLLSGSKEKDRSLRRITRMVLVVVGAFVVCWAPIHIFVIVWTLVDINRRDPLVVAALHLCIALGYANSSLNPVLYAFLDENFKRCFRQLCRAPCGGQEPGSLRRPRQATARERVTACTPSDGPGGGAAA

Key:
mu opioid receptor = mu opioid receptor (Rattus norvegicus, UniProt P33535); assay: Rat brain mu opioid receptor binding assay; conditions: read-out: μ-binding Ki; rat forebrain membranes, ~0.8 nM [3H]DAMGO
delta opioid receptor = delta opioid receptor (Rattus norvegicus, UniProt P33533); assay: Rat brain delta opioid receptor binding assay; conditions: read-out: δ-binding (Naltrindole ligand) Ki; rat forebrain membranes, 0.25 nM [3H]naltrindole

Row | SMILES | Ki (mu opioid receptor) | Ki (delta opioid receptor)
1 | Brc1ccccc1Oc1ncc(NC[C@@H]2CCCN2)c(Oc2ccccc2Br)n1 | 8.78 µM | 0.885 µM
2 | COc1ccc(Oc2ncc(NC3CCN(CCc4ccccc4)CC3)c(Oc3ccc(OC)cc3)n2)cc1 | 163 µM | 1.87 µM
3 | COc1ccc(Oc2ncc(NC3CN4CCC3CC4)c(Oc3ccc(OC)cc3)n2)cc1 (stereo not drawn) | > 10 µM | 0.254 µM
